Results from US12570617B2 (Kyungpook National University Industry-Academic Cooperation …, priority 2020, dated 2026).

Tested on: cancer cachexia mouse model
Test: Cancer cachexia mouse model (CT26): grip test, Rota-rod test, cancer size, body weight, feed intake, fat and muscle weight
Assay type: in vivo
Settings: cancer cachexia mice, oral 10 mg/kg once daily from 9th day, tested 18th day, vs Vehicle
Protocol: Cultured 1×10^6 cells were subcutaneously injected into the right side of the abdomen of 10-week-old mice. The size of the cancer grown in the right abdomen, body weight, and feed intake were measured once every time after cell injection, and 10 mg/kg of a triazole compound was orally administered daily from the 9th day. On the 18th day of cancer cell injection, each of the grip test and Rota-rod test for evaluating the muscle function was performed for 1 day. On the 20th day, subcutaneous fat, visceral fat and muscle (femur, calf) of the mouse were separated and weighed.
For the evaluation of muscle function, the grip test was performed by holding the mouse by having the mouse hold the metal grid attached to the grip strength meter, holding the tail of the mouse, and pulling it from behind horizontally. The force applied to the metal grid immediately before losing the grip was recorded in the measuring instrument as the maximum tension in g, and the entire process was performed 9 times per subject to record the average value. In the Rota-rod test (Ugo Basile, Comerio, VA, Italy), Rota-rod exercise was performed at least three times at a rotational speed of 4 rpm by using a machine equipped with a rod with the diameter of 3 cm appropriately processed to provide grip to measure the endurance time of the tested animals in seconds and record the average value. […]

CCCCCCCCCn1cc(C(N)(CO)CO)nn1 [KARI201, 2-amino-2-(1-nonyl-1H-1,2,3-triazol-4-yl)propane-1,3-diol]
muscle strength function (Grip test and Rota-rod test): significantly improved
